“And” between values parts separate entries of the source, which are not always exact repeats. Equal entries are not always repeated.
Tests used:
HDAC6 = target: T1, HDAC6 (Homo sapiens, UniProt Q9UBN7); experiment: ELISA-based HDAC activity assay, HDAC6; format: biochemical
T1 sequence (Q9UBN7 1-1215): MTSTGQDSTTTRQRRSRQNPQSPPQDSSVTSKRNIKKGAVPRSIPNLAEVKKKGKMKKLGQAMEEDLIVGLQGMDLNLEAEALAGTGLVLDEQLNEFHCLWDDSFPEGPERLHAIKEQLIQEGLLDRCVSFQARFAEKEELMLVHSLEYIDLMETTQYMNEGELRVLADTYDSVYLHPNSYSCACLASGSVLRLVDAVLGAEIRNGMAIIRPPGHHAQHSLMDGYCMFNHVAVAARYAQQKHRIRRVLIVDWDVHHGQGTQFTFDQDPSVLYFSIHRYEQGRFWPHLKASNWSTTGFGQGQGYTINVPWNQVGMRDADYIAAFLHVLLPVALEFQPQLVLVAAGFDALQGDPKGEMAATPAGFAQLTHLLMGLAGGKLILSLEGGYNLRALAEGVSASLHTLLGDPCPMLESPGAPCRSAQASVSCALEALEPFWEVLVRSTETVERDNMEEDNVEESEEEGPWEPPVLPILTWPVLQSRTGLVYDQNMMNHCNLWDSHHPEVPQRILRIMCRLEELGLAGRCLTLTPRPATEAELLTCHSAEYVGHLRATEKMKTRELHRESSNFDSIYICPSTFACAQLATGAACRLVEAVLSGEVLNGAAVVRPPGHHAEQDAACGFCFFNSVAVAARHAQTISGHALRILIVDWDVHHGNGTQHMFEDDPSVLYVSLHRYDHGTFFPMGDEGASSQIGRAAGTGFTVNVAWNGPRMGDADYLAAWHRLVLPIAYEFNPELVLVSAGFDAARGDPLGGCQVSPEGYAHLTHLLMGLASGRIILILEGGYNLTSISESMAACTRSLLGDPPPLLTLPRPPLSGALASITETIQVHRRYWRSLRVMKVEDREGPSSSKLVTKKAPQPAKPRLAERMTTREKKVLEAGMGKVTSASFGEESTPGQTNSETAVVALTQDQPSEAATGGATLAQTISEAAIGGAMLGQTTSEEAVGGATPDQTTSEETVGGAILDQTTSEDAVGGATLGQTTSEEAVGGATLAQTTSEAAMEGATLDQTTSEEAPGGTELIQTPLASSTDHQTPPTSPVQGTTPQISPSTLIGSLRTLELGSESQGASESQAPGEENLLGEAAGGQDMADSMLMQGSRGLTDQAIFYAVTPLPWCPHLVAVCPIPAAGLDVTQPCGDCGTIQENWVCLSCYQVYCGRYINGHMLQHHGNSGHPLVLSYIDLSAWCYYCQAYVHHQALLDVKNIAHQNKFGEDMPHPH

HDAC8 = target: T2, HDAC8 (Homo sapiens, UniProt Q9BY41); experiment: Recombinant HDAC8 inhibition; format: biochemical; details: from IC50 values
T2 sequence (Q9BY41 1-377): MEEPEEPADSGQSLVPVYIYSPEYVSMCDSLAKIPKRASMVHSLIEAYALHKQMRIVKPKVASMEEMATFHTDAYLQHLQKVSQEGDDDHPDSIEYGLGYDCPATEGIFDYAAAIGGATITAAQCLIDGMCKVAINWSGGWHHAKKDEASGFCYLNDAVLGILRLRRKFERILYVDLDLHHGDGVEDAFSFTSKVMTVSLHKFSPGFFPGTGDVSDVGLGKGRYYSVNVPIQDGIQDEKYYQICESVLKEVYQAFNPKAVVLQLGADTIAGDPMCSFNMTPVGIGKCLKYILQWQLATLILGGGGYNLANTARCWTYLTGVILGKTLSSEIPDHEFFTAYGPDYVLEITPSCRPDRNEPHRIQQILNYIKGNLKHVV

acetyl-α-tubulin (AcTub) = experiment: In cellulo selectivity testing, western blot of acetyl-α-tubulin in U937 cells; format: cell-based, human; details: SAHA 5 μM, 1f 20-60 μM, 18 hours
acetyl-histone H3 (AcH3) = experiment: In cellulo selectivity testing, western blot of acetyl-histone H3 in U937 cells; format: cell-based, human; details: SAHA 5 μM, 18 hours

| isoform selectivity in single concentration screen (HDAC6 versus HDAC1, 2, 3) (HDAC6; 1a-f at 0.75, 0.75, 2.5, 1.25, 2.5, and 5 μM, SAHA at 1 μM) | HDAC6 selectivity over HDAC1, 2, and 3 (HDAC6; from IC50 values) | fold selectivity for HDAC6 and HDAC8 over HDAC1, 2, and 3 (HDAC6; from IC50 values) | HDAC8 selectivity over HDAC1, 2, and 3 (HDAC8) | SMILES | levels of acetyl-α-tubulin (HDAC6 substrate) (acetyl-α-tubulin (AcTub)) | levels of acetyl-histone H3 (Class I HDAC substrate) (acetyl-histone H3 (AcH3)) |
| --- | --- | --- | --- | --- | --- | --- |
| greatest difference in potency | at least 170 fold | 170- to 480 fold and 170- to 310 fold | at least 200 fold | CCCCC(CCCC(=O)Nc1ccccc1)CCC(=O)NO (stereo not drawn) [Compound 1c, 4-butyl-N^1-hydroxy-N^8-phenyloctanediamide] |  |  |
|  |  |  |  | O=C(CCCCCCC(=O)Nc1ccccc1)NO [SAHA, Suberoylanilide hydroxamic acid, reference compound] | increased levels | increased levels |

From paper PMC5890937 (European journal of medicinal chemistry, 2017)
